In article PMC8826081, “Three-Carbon Linked Dihydroartemisinin-Isatin Hybrids: Design, Synthesis and Their Antiproliferative Anticancer Activity” (Frontiers in Pharmacology, 2022):

What was measured:
[1] = tested on: A549/DOX (doxorubicin-resistant A549 cells); test: MTT antiproliferative activity against doxorubicin-resistant A549; format: cell-based
From the text: (§1) 3-(4,5-dimethylthiazol-2-yl)-2,5-diphenyltetrazolium bromide (MTT) assay was used to determined the antiproliferative activity of dihydroartemisinin-isatin hybrids 5a-e and 6a-j with three-carbon linker against A549, multidrug-resistant A549/DOX and A549/DDP lung cancer cell lines as well as cytotoxicity towards normal lung epithelial cell line (BEAS-2B). The inhibitory effects were expressed in terms of half maximal inhibitory concentration (IC50) values.
(§2) A549, A549/DOX, and A549/DDP lung cancer cells (2×10^3) were plated in each well of a 96-well plate and were allowed to adhere and spread for 24 h. The […] were added to a final concentration of 100 µM, and the cells were cultured for 24 h at 37 °C. 3-(4,5-dimethyl-2-thiazolyl)-2,5-diphenyltetrazolium bromide (MTT) solution (10 µL) was added to each well, and the cultures were incubated for an additional 4 h. A further 100 µL of […] was added and incubation continued overnight. The absorbance at 540 nm was determined in each well with a 96-well plate reader. The growth of the treated cells was compared with that of untreated cells.

[2] = tested on: A549/DDP (cisplatin-resistant A549 cells); test: MTT antiproliferative activity against cisplatin-resistant A549; format: cell-based
From the text: as §1, §2

[3] = tested on: BEAS-2B normal lung epithelial cell line; test: MTT cytotoxicity towards normal lung epithelial cells
Protocol: as §1
The compounds were dissolved in DMSO with concentrations from 1024 to 1 μg/mL. The NIH/3T3 cells were maintained in culture medium at 37 °C under 5% CO2 atmosphere. Cells were seeded in 96-well plates (1×10^4 cell per well) and allowed to recover for 24 h. After 72 h of exposure, cells were harvested and cell viability was assessed by MTT assay. The CC50 values were calculated by Bliss analysis.

RI1 (Resistance index: IC50(A549/DOX)/IC50(A549)) [1]: 13.38
RI2 (Resistance index: IC50(A549/DDP)/IC50(A549)) [2]: 3.72
SMILES: COc1cccc2c1C(=O)c1c(O)c3c(c(O)c1C2=O)C[C@@](O)(C(=O)CO)C[C@@H]3O[C@H]1C[C@H](N)[C@H](O)[C@H](C)O1 [doxorubicin, reference compound]
SI (Selectivity index: IC50(BEAS-2B)/IC50(A549)) [3]: 23.1
